Measurements: patent publication US11045453B1 (priority 2020, dated 2021)

Biological target: T1, Human Matriptase-1 (Homo sapiens, UniProt Q9Y5Y6)
T1 sequence (Q9Y5Y6 1-855): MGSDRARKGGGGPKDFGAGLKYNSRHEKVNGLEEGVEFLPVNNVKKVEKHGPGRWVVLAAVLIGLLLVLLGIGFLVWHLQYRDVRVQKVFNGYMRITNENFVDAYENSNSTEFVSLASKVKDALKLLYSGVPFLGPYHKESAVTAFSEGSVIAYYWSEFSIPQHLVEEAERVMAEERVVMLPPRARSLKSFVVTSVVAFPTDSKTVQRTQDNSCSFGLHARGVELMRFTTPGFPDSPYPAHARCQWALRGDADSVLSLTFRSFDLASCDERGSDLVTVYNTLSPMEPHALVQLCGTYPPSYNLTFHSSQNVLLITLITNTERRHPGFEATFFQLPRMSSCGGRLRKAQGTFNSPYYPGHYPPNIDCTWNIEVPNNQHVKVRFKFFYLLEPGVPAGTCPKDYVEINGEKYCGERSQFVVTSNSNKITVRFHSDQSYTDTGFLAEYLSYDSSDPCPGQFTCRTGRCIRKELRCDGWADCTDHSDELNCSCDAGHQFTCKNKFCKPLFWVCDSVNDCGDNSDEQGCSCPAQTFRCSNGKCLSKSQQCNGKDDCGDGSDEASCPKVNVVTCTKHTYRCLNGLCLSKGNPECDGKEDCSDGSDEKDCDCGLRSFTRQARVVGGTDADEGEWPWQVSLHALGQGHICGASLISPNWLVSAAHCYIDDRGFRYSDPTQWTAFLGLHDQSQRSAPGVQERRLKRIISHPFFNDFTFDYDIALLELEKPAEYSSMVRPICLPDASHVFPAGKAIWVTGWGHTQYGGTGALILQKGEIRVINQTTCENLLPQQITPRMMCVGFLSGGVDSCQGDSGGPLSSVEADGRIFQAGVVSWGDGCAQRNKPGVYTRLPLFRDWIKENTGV
Test: biochemical

`CCOC(=O)N1CCN(C(=O)[C@H](Cc2cccc(C(=N)N)c2)NS(=O)(=O)c2c(C(C)C)cc(C(C)C)cc2C(C)C)CC1` [WX-UK1, N-α-(2,4,6-triisopropylphenylsulfonyl)-3-amidino-phenylalanine-4-ethoxycarbonylpiperazide] showed a Ki of 200 ± 10 nM.
